Experimental data from ChEMBL document CHEMBL2157965, “Structure-based design of potent Bcl-2/Bcl-xL inhibitors with strong in vivo antitumor activity” (J Med Chem, 2012).

Amino acid sequences for entries named in this document (tags omitted).
UniProt Q07820, whole entry: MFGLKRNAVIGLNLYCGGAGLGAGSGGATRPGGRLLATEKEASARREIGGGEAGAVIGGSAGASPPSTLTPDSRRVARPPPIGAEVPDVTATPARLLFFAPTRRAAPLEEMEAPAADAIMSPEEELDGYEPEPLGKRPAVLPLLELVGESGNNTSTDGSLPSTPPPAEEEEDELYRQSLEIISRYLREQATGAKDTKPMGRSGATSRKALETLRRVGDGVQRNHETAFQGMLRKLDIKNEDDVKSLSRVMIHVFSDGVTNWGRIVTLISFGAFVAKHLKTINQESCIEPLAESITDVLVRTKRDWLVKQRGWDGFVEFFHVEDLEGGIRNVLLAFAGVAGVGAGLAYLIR

Biological target: Induced myeloid leukemia cell differentiation protein Mcl-1 (Homo sapiens, UniProt Q07820)
Experiment: Inhibition of human N-terminal His8-tagged Mcl1 expressed in Escherichia coli BL21(DE3) assessed as inhibition of Fluorescein-labeled BID binding after 1 to 2 hrs by fluorescence polarization assay

IC50: > 1 µM
SMILES: CN(C)CC[C@H](CSc1ccccc1)Nc1ccc(S(=O)(=O)NC(=O)c2ccc(N3CCN(Cc4ccccc4-c4ccc(Cl)cc4)CC3)cc2)cc1[N+](=O)[O-] [ABT 737]
